Test results: patent US20250332178A1, “METHODS OF TREATING MYCOBACTERIAL INFECTIONS USING TETRACYCLINE COMPOUNDS” (priority 2018, published 2025)

Assay: Intra-pulmonary steady-state concentrations (plasma, ELF, alveolar cells) after multiple IV doses in healthy adult subjects
Settings: human, in vivo, 100 mg
Description: The study was designed as a single-center, multiple-dose, open-label study to determine concentrations of omadacycline and tigecycline in pulmonary compartments (ELF and AC) in healthy adult subjects after administration of omadacycline and tigecycline to steady state levels of dosing. A total of 62 healthy volunteers participated in the study, who were randomized in a 2:1 ratio to receive either omadacycline or tigecycline. Of these, 42 received omadacycline as 5 intravenous doses of 100 mg administered as 30 minute infusions at t=0, 12, 24, 48 and 72 hours. The remaining 20 subjects received tigecycline as 1 intravenous dose of 100 mg administered as a 30 minute infusion at t=0, followed by 6 intravenous doses of 50 mg administered as 30 minute infusions at t=12, 24, 36, 48, 60, and 72 hours. A study completion visit was conducted on the day following the final test article dose. There was a final follow-up assessment 7 to 14 days following the subject's last dose of test article which may be completed by telephone contact or other interactive technology unless an examination was needed to evaluate adverse events or abnormalities noted at the study completion visit.
Plasma PK samples were collected pre-dose and at 0.5, 1, 1.5, 2, 3, 4, 6, 8, 12 and 24 hours post-dose on day 4. A sample for 24 hours was collected only for omadacycline. […]

CN(C)c1cc(CNCC(C)(C)C)c(O)c2c1C[C@H]1C[C@H]3C(N(C)C)C(O)=C(C(N)=O)C(=O)[C@@]3(O)C(O)=C1C2=O (stereo partly drawn) [Omadacycline, (4aS,5aR,12aS)-4,7-bis(dimethylamino)-3,10,12,12a-tetrahydroxy-9-((neopentylamino)methyl)-1,11-dioxo-1,4,4a,5,5a,6,11,12a-octahydrotetracene-2-carboxamide]
clearance: 134 mL/min
half-life: 14.7 ± 4.2 h
